# PubChem BioAssay AID1524 (The Scripps Research Institute Molecular Screening Center, 2009)
# Sequences of proteins named here, by UniProt entry; tags and fusion partners are left off. A change or cut given only in a name is not applied to a line headed by its entry.
# UniProt O95977: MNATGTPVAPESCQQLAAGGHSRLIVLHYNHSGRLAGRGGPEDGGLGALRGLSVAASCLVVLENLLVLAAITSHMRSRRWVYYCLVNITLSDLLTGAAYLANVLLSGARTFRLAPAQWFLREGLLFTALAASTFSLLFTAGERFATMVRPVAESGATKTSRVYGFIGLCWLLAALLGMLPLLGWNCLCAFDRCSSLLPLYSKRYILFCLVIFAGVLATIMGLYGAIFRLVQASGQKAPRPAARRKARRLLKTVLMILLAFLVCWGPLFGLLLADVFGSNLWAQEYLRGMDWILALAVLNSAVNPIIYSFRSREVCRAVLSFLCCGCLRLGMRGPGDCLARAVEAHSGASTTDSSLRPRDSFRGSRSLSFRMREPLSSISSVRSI
# The entries are a selection whose mix differs from that of the whole data set. Activity calls are given as the source filed them. Rule as the data show it: active = inhibition above about 30%; inactive = the rest.
# Target: Sphingosine 1-phosphate receptor 4 (Homo sapiens) (UniProt O95977)
# Assay: blockers of human S1P4 signalling – cell-based, confirmation (AID 1524)
# Settings: S1P4-expressing cell line, antagonist mode, reporter read-out; at 4.98 µM; active compounds read high
smiles,measurement,value
C[N+]1=C2C=CC=CC=C2SC12C([N+](=O)[O-])=CC([N+](=O)[O-])=C[C-]2[N+](=O)[O-] (stereo unspecified),inhibition,active: 52.6%
